The values that follow come from patent US7531545B2, “2-amino-3,4-dihydro-pyrido[3,4-d]pyrimidine derivatives useful as inhibitors of β-secretase (BACE)” (Janssen Pharmaceutica, N.V., priority 2005, dated 2009).

Amino acid sequences for entries named in this document (tags omitted). Residues count along the entry.
UniProt P56817, 46-501 limits assumed: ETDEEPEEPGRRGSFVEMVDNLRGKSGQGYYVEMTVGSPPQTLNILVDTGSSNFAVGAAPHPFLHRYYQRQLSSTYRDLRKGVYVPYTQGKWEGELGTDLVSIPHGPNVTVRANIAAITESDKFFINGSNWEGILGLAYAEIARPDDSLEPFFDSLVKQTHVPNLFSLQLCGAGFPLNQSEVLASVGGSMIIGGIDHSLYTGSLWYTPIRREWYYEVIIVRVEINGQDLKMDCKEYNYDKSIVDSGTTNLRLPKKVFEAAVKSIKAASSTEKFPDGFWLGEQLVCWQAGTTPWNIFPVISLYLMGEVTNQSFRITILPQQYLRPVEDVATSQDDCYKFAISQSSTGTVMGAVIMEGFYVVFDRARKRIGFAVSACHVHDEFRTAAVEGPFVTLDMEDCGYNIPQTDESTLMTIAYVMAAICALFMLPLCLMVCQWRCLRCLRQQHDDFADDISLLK

This assay concerns the target human BACE-1 (Homo sapiens, UniProt P56817). Description: CEREP BACE Inhibition Assay. In kind it is biochemical. The note with it: recombinant enzyme.

One may read the IC50 as the concentration that inhibits the measured activity by half.

Turning to `NC1=Nc2cnc(Oc3ccccc3)cc2CN1[C@@H](CCC(=O)N1CCC(CCO)CC1)C1CCCCC1`, the IC50 was 220 nM. The “% Inhibition @ 1.0 μM” value (1.0 μM, percent inhibition of the control activity) amounted to 82%.
